Test results: PubChem BioAssay AID1789 (The Scripps Research Institute Molecular Screening Center, 2009)
This is a selection; strong and weak results do not stand in their true shares. Some results for these compounds are left out of this collection, so the calls shown say nothing about other tests. Activity calls are given as the source filed them.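 Rule for the calls: active = inhibition above the screen-wide mean plus 3 SD, computed separately per campaign (cut at about 16% in these data); inactive = the rest.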

Test system: Heat shock protein HSP 90 (rabbit reticulocyte lysate; luciferase refolding)
Test: HSP90 inhibitors, primary screen, cell lysate, luminescence (AID 1789);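 note: 0% = DMSO wells and 100% = 60 µM geldanamycin wells; inhibitors lower the luminescence because luciferase stays unfolded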
Conditions: 3 h, at 5.6 µM, active compounds read high

Question: How did the inhibition turn out when `CCN1CCCC(OC(=O)C2(O)c3ccccc3C=Cc3ccccc32)C1` (centres undefined) was run?
Answer: Its inhibition is inactive: 0.17%.

Question: Which inhibition does the source give for `Cc1cc(C(=O)NCC2(N3CCCCC3)CCCCC2)ccc1[N+](=O)[O-]` here?
Answer: Its inhibition is inactive: 4.68%.

Question: With `O=C(NCC1(N2CCCCC2)CCCCC1)c1cccc(Br)c1` as the compound, how does the inhibition read?
Answer: The inhibition was inactive: -6.42%.

Question: `COc1ccc(C(=O)NCC2(N(C)C)CCCCC2)cc1` was tested. Which inhibition did it give?
Answer: The inhibition was inactive: 3.38%.

Question: For `C=CCN1CCN(CCOC(=O)C(O)(c2ccccc2)c2ccccc2)CC1`, which inhibition is on record?
Answer: The inhibition was inactive: -1.87%.

Question: Which inhibition does the source give for `O=C(NCC1(N2CCCCC2)CCCCC1)c1cc(F)c(F)cc1Cl` here?
Answer: Its inhibition is inactive: -3.28%.

Question: `Cc1ccccc1C(=O)NCC1(N2CCCCC2)CCCCC1` was tested. Which inhibition did it give?
Answer: Its inhibition is inactive: 3.41%.

Question: `CN(C)c1ccc(C(=O)NCC2(N(C)C)CCCCC2)cc1` was tested. Which inhibition did it give?
Answer: The inhibition was inactive: 0.14%.

Question: For `CN(C)C1CCCC1OC(=O)C(O)(c1ccccc1)c1ccccc1` (centres undefined), which inhibition is on record?
Answer: The inhibition was inactive: -1%.

Question: Which inhibition does the source give for `Cc1ccc(C(=O)NCC2(N3CCCCC3)CCCCC2)cc1` here?
Answer: The inhibition was inactive: 4.54%.

Question: `CC(C)N1C(=O)CC2(CCN(CCOC(=O)C(O)(c3ccccc3)c3ccccc3)CC2)C1=O` was tested. Which inhibition did it give?
Answer: Its inhibition is inactive: -0.2%.

Question: For `CCN(CC)CC(C)C(C)OC(=O)C(O)(c1ccccc1)c1ccccc1` (centres undefined), which inhibition is on record?
Answer: Its inhibition is inactive: -1.68%.

Question: Which inhibition does the source give for `COc1cc(SC)ccc1C(=O)NCC1(N(C)C)CCCCC1` here?
Answer: The inhibition was inactive: -1.8%.

Question: With `CN1[C@@H]2CC[C@H]1CC(OC(=O)C(O)(c1ccccc1)c1ccccc1)C2` (some centres undefined) as the compound, how does the inhibition read?
Answer: The inhibition was inactive: -0.94%.

Question: Which inhibition does the source give for `O=C(NCC1(N2CCCCC2)CCCCC1)c1cc([N+](=O)[O-])ccc1Cl` here?
Answer: Its inhibition is inactive: 1.02%.

Question: How did the inhibition turn out when `CN(C)c1cccc(C(=O)NCC2(N(C)C)CCCCC2)c1` was run?
Answer: The inhibition was inactive: -2.8%.

Question: For `CC(C)Oc1ccc(C(=O)NCC2(N(C)C)CCCCC2)cc1`, which inhibition is on record?
Answer: Its inhibition is inactive: 3.29%.

Question: With `COc1ccc(Br)c(C(=O)NCC2(N3CCCCC3)CCCCC2)c1` as the compound, how does the inhibition read?
Answer: The inhibition was inactive: 1.01%.

Question: `O=C(OC1CN2CCC1CC2)C(CO)(c1ccccc1)c1ccccc1` (centres undefined) was tested. Which inhibition did it give?
Answer: The inhibition was inactive: 2.92%.

Question: With `O=C(NCC1(N2CCCCC2)CCCCC1)c1cccc(Cl)c1` as the compound, how does the inhibition read?
Answer: Its inhibition is inactive: 0.97%.

Question: Which inhibition does the source give for `COc1cccc(C(=O)NCC2(N3CCCCC3)CCCCC2)c1` here?
Answer: Its inhibition is inactive: -0.52%.

Question: How did the inhibition turn out when `COc1ccc(Cl)cc1C(=O)NCC1(N(C)C)CCCCC1` was run?
Answer: The inhibition was inactive: 1.4%.

Question: For `COc1cc(C(=O)NCC2(N(C)C)CCCCC2)c([N+](=O)[O-])cc1OC`, which inhibition is on record?
Answer: The inhibition was inactive: 1.87%.

Question: With `CN(C)C1(CNC(=O)c2ccc(Br)cc2)CCCCC1` as the compound, how does the inhibition read?
Answer: Its inhibition is inactive: 1.92%.
